We go through five compounds from ChEMBL document CHEMBL1129509, “Hypoxia-selective antitumor agents. 12. Nitrobenzyl quaternary salts as bioreductive prodrugs of the alkylating agent mechlorethamine” (1996).

The test system of experiment [1] is EMT6. Nature of the experiment: Hypersensitivity factor is the ratio of IC50 for AA8/IC50 for EMT6 cell line. To be noted: Mus musculus.
For experiment [2], the system named is EMT6. Nature of the experiment: Ratio of aerobic C10 to that of hypoxic C10 for EMT cells. Conditions: Mus musculus.
Experiment [3] concerns FME. Put plainly: Hypersensitivity factor is the ratio of IC50 for AA8/IC50 for FME cell line. Conditions: Homo sapiens.
In experiment [4] the test system is EMT6. Put plainly: Concentration to reduce EMT cell survival under hypoxic conditions (3h drug exposure) by clonogenic assay. Conditions: Mus musculus.
Experiment [5] has as its system UV4. Put plainly: Hypersensitivity factor is the ratio of IC50 for AA8/IC50 for UV4 cell line. To be noted: Cricetulus griseus.

In the case of `C[N+](CCCl)(CCCl)Cc1ccccc1[N+](=O)[O-]`, the values for the Hypersensitivity factor in experiment [1], in experiment [3] and in experiment [5] were 40, 24 and 300, respectively. For the same compound, the Ratio in experiment [2] was found to be 2500. In experiment [4], the C10 turned out to be 20 mM·h.
For the compound `C[N+](CCCl)(CCCl)Cc1cccc([N+](=O)[O-])c1`, the results for the Hypersensitivity factor in experiment [1], in experiment [3] and in experiment [5] were 16, 72 and 95, respectively.
Turning to `Cc1cccc(C[N+](C)(CCCl)CCCl)c1[N+](=O)[O-]`, the values for the Hypersensitivity factor in experiment [1], in experiment [3] and in experiment [5] were 400, 330 and 730, respectively. Moreover, the Ratio in experiment [2] came out at 1. In experiment [4], this compound registered a C10 of 0.2 mM·h.
The like results for `Cc1ccc(C[N+](C)(CCCl)CCCl)c([N+](=O)[O-])c1` were, in that order, 120, 54, 470, 240 and 0.29 mM·h.
Turning to `C[N+](CCCl)(CCCl)Cc1ccc([N+](=O)[O-])cc1`, the Hypersensitivity factor in experiment [1] was 121; in experiment [3], 22; in experiment [5], 2900.
